Protein sequences, listed by entry. Tags and fused reporters are not part of them. Lines headed by an entry give the natural chain unless they say otherwise; changes in a name come on top.
UniProt P35968: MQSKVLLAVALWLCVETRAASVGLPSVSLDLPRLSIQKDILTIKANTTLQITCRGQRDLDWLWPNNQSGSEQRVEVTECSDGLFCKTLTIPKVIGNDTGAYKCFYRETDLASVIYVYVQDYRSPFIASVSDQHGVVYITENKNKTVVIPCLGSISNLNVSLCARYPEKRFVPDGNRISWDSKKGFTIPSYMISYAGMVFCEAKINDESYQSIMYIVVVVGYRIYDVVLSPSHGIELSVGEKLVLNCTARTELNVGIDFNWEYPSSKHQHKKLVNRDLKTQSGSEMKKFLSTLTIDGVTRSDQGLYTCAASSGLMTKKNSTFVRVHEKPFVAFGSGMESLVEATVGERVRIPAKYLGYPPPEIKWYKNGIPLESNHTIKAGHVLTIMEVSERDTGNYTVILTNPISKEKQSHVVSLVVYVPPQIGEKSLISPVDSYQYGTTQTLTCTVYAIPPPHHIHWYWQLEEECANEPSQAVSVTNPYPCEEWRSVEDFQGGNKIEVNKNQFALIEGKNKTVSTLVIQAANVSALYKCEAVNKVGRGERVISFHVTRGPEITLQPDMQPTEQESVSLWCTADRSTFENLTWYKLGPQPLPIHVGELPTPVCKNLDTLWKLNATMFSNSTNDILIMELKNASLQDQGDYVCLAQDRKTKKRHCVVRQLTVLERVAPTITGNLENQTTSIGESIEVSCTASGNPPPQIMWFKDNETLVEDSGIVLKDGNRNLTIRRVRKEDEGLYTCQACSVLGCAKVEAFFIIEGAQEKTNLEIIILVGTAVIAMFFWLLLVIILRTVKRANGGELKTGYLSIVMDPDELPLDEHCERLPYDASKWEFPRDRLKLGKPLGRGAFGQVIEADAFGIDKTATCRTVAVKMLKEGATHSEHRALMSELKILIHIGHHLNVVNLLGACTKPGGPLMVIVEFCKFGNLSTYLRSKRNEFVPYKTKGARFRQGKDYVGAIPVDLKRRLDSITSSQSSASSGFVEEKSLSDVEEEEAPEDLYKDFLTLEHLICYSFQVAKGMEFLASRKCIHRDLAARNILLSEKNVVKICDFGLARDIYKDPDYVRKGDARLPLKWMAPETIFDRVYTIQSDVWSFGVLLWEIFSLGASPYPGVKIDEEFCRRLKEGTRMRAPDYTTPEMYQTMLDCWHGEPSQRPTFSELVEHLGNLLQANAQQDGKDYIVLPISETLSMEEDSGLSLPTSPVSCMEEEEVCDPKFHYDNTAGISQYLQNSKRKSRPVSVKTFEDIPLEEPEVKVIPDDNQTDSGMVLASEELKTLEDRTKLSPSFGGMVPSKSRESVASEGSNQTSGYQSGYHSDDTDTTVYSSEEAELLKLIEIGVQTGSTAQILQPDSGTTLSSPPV

According to publication PMC4829425:

Target: full length wild-type human VEGFR-2 (human) (UniProt P35968)
Assay: cross-linking; CHO cells expressing full length VEGFR-2, starved 24 hr (no ligand), cell surface cross-linking with 2 mM BS3 for 30 min at room temperature, Western blot with anti-VEGFR-2

full length wild-type human VEGFR-2 (a stretch of the chain, chain not printed) (receptor; other documents disagree on this pair)
stoichiometry N: 2
